Values quoted from earlier work as cited in article PMC6261661 (ACS chemical neuroscience, 2018).

Chains of the proteins cited; added tags and fusions are not shown. Lines headed by an entry give the natural chain unless they say otherwise; changes in a name come on top.
UniProt P33033: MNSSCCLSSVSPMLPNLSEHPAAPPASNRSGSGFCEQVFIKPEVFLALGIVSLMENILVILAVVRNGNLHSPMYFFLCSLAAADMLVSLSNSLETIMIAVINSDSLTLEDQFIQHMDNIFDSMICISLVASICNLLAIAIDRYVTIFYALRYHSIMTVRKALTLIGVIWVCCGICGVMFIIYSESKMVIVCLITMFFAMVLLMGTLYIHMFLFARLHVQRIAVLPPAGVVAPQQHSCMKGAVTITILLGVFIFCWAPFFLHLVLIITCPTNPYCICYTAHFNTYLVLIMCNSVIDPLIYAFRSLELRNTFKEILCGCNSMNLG

Target: mMC3R (Mus musculus, UniProt P33033)
Conditions: reference peptide from the literature; ref [32]; cited from earlier work

For “Ac-His-(pI)DPhe-Arg-Trp-NH2 [Peptide 45]”, the “mMC3R pA2” value is given as 7.3±0.2.
